Biological target: T1, phosphotyrosine-containing peptide with an N-terminal fluorescein, 17
T1 chain: SYVNVQ
Assay: fluorescence polarisation; fluorescence anisotropy; fluorescein peptide 17 titrated with purified His6-(Grb2-SH2)
Conditions: remark: other sources report otherwise

B1: monomeric His6-(Grb2-SH2), P62993 60-152 (domain or fragment)
chain: WFFGKIPRAKAEEMLSKQRHDGAFLIRESESAPGDFSLSVKFGNDVQHFKVLRDGAGKYFLWVVKFNSLNELVDYHRSTSVSRNQQIFLRDIE
modifications: here or on the partner: phosphotyrosine; fluorescein on the N-terminus
B1 gave a Kd of 283 nM.

From article PMC4159583, “Evaluation of the Interaction between Phosphohistidine Analogues and Phosphotyrosine Binding Domains” (Chembiochem, 2014)
